Target: T1, 3-hydroxy-3-methylglutaryl-coenzyme A reductase (Homo sapiens, UniProt P04035)
T1 sequence (P04035 whole entry): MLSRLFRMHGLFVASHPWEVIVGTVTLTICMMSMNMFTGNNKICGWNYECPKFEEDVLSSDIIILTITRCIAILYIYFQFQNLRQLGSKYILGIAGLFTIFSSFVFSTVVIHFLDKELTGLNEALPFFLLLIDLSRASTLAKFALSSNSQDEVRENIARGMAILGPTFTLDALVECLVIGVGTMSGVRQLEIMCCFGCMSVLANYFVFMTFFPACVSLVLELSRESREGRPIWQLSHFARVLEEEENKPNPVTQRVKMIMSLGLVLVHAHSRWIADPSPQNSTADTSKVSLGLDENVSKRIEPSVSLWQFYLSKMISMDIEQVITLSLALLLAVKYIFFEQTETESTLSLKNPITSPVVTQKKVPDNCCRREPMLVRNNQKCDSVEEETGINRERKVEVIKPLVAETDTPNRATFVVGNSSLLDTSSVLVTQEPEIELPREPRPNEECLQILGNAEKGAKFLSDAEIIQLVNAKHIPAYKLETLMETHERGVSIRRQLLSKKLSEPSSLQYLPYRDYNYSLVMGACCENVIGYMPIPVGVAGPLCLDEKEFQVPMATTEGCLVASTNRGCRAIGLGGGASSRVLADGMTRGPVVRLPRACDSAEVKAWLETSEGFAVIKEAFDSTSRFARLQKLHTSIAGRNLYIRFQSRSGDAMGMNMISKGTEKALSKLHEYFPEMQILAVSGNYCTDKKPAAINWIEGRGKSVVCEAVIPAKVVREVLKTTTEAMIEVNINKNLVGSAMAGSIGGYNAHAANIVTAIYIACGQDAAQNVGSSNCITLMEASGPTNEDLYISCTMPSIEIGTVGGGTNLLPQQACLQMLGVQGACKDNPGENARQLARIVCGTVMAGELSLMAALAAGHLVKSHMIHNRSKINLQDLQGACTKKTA
Assay: Inhibition of HMG-CoA Reductase (unknown origin)

- Ki: 6.2 nM
SMILES: CC(C)c1c(C(=O)Nc2ccccc2)c(-c2ccccc2)c(-c2ccc(F)cc2)n1CC[C@@H](O)C[C@@H](O)CC(=O)O [ATORVASTATIN]

Reference: ChEMBL document CHEMBL4321790, “Why Some Targets Benefit from beyond Rule of Five Drugs” (J Med Chem, 2019)
